How the values were obtained:
[1] = target: GLP-1 receptor (Homo sapiens, UniProt P43220); experiment: Luciferase-based reporter gene assay for cAMP detection, GLP-1 receptor; conditions: incubation in PBS for a week; listed as Analog 5
[2] = Cleavage of dipeptide-extended prodrugs on incubation in PBS (HPLC/MS); type: physicochemical; conditions: pH 7.2
Method: Preliminary analyses were performed with these crude peptides to get an approximation of their relative conversion rates in Phosphate Buffered Saline (PBS) buffer (pH, 7.2) using high performance liquid chromatography (HPLC) and MALDI analysis. The crude peptide samples were dissolved in the PBS buffer at a concentration of 1 mg/ml. 1 ml of the resulting solution was stored in a 1.5 ml HPLC vial which was then sealed and incubated at 37° C. Aliquots of 100 μl were drawn out at various time intervals, cooled to room temperature and analyzed by HPLC.
HPLC analyses were performed on a 150 mm×4.6 mm C18 Vydac column. The flow rate was 1 ml/min. […] A linear gradient was employed (40% to 70% B in 15 minutes).
Alternatively, each peptide was heated for 120 min at 100° C. to accelerate the amide bond cleavage. Cleavage of the prodrugs was analyzed by reverse phase HPLC and MS.
The peptide was also heated at 100° C. to determine the susceptibility to cleavage (Table 4).

Protein sequences, listed by entry. Tags and fused reporters are not part of them. Residues count along the entry.
UniProt P43220, 24-463, species assumed: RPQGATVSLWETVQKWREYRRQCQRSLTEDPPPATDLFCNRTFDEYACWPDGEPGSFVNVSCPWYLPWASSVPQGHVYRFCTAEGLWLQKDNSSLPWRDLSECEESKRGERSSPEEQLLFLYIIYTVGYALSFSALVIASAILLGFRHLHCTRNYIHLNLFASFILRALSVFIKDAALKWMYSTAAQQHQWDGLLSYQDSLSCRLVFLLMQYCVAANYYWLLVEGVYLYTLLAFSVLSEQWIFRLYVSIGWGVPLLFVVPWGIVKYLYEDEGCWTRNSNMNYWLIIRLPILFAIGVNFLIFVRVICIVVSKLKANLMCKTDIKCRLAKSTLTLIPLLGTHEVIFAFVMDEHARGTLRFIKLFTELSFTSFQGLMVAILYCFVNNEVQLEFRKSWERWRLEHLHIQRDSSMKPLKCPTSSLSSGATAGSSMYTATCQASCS

Structure (SMILES): CC[C@H](C)[C@H](NC(=O)[C@H](Cc1ccccc1)NC(=O)[C@H](CCC(=O)O)NC(=O)[C@H](CCCCN)NC(=O)[C@H](C)NC(=O)[C@H](C)NC(=O)[C@H](CCC(N)=O)NC(=O)CNC(=O)[C@H](CCC(=O)O)NC(=O)[C@H](CC(C)C)NC(=O)[C@H](Cc1ccc(O)cc1)NC(=O)[C@H](CO)NC(=O)[C@H](CO)NC(=O)[C@@H](NC(=O)[C@H](CC(=O)O)NC(=O)[C@H](CO)NC(=O)[C@@H](NC(=O)[C@H](Cc1ccccc1)NC(=O)[C@@H](NC(=O)CNC(=O)[C@H](CCC(=O)O)NC(=O)[C@H](C)NC(=O)[C@H](Cc1ccccc1)OC(=O)[C@@H](NC(=O)CN)C(C)C)[C@@H](C)O)[C@@H](C)O)C(C)C)C(=O)N[C@@H](C)C(=O)N[C@@H](Cc1c[nH]c2ccccc12)C(=O)N[C@@H](CC(C)C)C(=O)N[C@H](C(=O)N[C@@H](CCCCN)C(=O)NCC(=O)NCC(=O)N1CCC[C@H]1C(=O)N[C@@H](CO)C(=O)N[C@@H](CO)C(=O)NCC(=O)N[C@@H](C)C(=O)N1CCC[C@H]1C(=O)N1CCC[C@H]1C(=O)N1CCC[C@H]1C(=O)N[C@@H](CO)C(N)=O)C(C)C [Compound 10]
- potency after incubation [1]: potency converted close to that of the parent drug

Structure (SMILES): CC[C@H](C)[C@H](NC(=O)[C@H](Cc1ccccc1)NC(=O)[C@H](CCC(=O)O)NC(=O)[C@H](CCCCN)NC(=O)[C@H](C)NC(=O)[C@H](C)NC(=O)[C@H](CCC(N)=O)NC(=O)CNC(=O)[C@H](CCC(=O)O)NC(=O)[C@H](CC(C)C)NC(=O)[C@H](Cc1ccc(O)cc1)NC(=O)[C@H](CO)NC(=O)[C@H](CO)NC(=O)[C@@H](NC(=O)[C@H](CC(=O)O)NC(=O)[C@H](CO)NC(=O)[C@@H](NC(=O)[C@H](Cc1ccccc1)NC(=O)[C@@H](NC(=O)CNC(=O)[C@H](CCC(=O)O)NC(=O)[C@H](C)NC(=O)[C@H](Cc1ccccc1)OC(=O)[C@@H](NC(=O)[C@@H](N)Cc1ccccc1)C(C)C)[C@@H](C)O)[C@@H](C)O)C(C)C)C(=O)N[C@@H](C)C(=O)N[C@@H](Cc1c[nH]c2ccccc12)C(=O)N[C@@H](CC(C)C)C(=O)N[C@H](C(=O)N[C@@H](CCCCN)C(=O)NCC(=O)NCC(=O)N1CCC[C@H]1C(=O)N[C@@H](CO)C(=O)N[C@@H](CO)C(=O)NCC(=O)N[C@@H](C)C(=O)N1CCC[C@H]1C(=O)N1CCC[C@H]1C(=O)N1CCC[C@H]1C(=O)N[C@@H](CO)C(N)=O)C(C)C [Peptide 10]
- half-life [2]: 64 h
